Values quoted from earlier work as cited in PMC4525192 (European Journal of Nuclear Medicine and Molecular Imaging, 2014).

Conditions: in vivo

B1: 90Y-Zevalin: 90Yttrium-ibritumomab tiuxetan (title of ref 40) (conjugate, chains of the INN, looked up)
heavy: QAYLQQSGAELVRPGASVKMSCKASGYTFTSYNMHWVKQTPRQGLEWIGAIYPGNGDTSYNQKFKGKATLTVDKSSSTAYMQLSSLTSEDSAVYFCARVVYYSNSYWYFDVWGTGTTVTVSAPSVYPLAPVCGDTTGSSVTLGCLVKGYFPEPVTLTWNSGSLSSGVHTFPAVLQSDLYTLSSSVTVTSSTWPSQSITCNVAHPASSTKVDKKIEPRGPTIKPCPPCKCPAPNLLGGPSVFIFPPKIKDVLMISLSPIVTCVVVDVSEDDPDVQISWFVNNVEVHTAQTQTHREDYNSTLRVVSALPIQHQDWMSGKEFKCKVNNKDLPAPIERTISKPKGSVRAPQVYVLPPPEEEMTKKQVTLTCMVTDFMPEDIYVEWTNNGKTELNYKNTEPVLDSDGSYFMYSKLRVEKKNWVERNSYSCSVVHEGLHNHHTTKSFSR
light: QIVLSQSPAILSASPGEKVTMTCRASSSVSYMHWYQQKPGSSPKPWIYAPSNLASGVPARFSGSGSGTSYSLTISRVEAEDAATYYCQQWSFNPPTFGAGTKLELKRADAAPTVFIFPPSDEQLKSGTASVVCLLNNFYPREAKVQWKVDNALQSGNSQESVTEQDSKDSTYSLSSTLTLSKADYEKHKVYACEVTHQGLSSPVTKSFN
modifications: tiuxetan chelator, 90Y
For B1, the “Mean latency of MDS/AML” value is given as 4.8 years and the “Patients with MDS/AML during long-term follow-up” value is given as 4.2%.
